Assays:
p53RE-bla HCT-116 cells = test: Cell viability (CellTiter Glo) multiplexed with the p53-bla assay; settings: for Viability EC50, HLM / Viability Efficacy, HLM: human liver microsomes; for Viability EC50, RLM / Viability Efficacy, RLM: rat liver microsomes
[1] = system: p53 signaling (p53RE-bla HCT-116 cells); test: p53-bla reporter gene assay without microsomes (qHTS); assay type: cell-based
[2] = system: p53 signaling (p53RE-bla HCT-116 cells); test: p53-bla reporter gene assay with RLM without NADPH; assay type: cell-based; settings: No NADPH addition; for efficacy: value in parentheses; for EC50: mean ± SD of three experiments
[3] = system: p53 signaling (p53RE-bla HCT-116 cells); test: p53-bla reporter gene assay with heat-attenuated RLM plus NADPH; assay type: cell-based; settings: for efficacy: Heat-attenuated microsomes (RLM), value in parentheses
[4] = system: p53 signaling (p53RE-bla HCT-116 cells); test: p53-bla reporter gene assay with rat liver microsomes (RLM) plus NADPH
[5] = parent compound, RLM with p53-bla cells, % of amount at 0 h
[6] = system: p53 signaling (p53RE-bla HCT-116 cells); test: p53-bla reporter gene assay with human liver microsomes (HLM) plus NADPH
[7] = cherry pick confirmation, with human liver microsomes
[8] = cherry pick confirmation, with rat liver microsomes
[9] = cherry pick confirmation, without microsomes
[10] = primary screening, with human liver microsomes
[11] = primary screening, with rat liver microsomes
[12] = primary screening, without microsomes
[13] = Cherry pick confirmation, human liver microsomes

EPN
Viability EC50 (p53RE-bla HCT-116 cells; [7]): inactive | Viability efficacy (p53RE-bla HCT-116 cells; [7]): inactive | Viability EC50 (p53RE-bla HCT-116 cells; [8]): inactive | Viability efficacy (p53RE-bla HCT-116 cells; [8]): inactive | Viability EC50 (p53RE-bla HCT-116 cells; [9]): inactive | Viability efficacy (p53RE-bla HCT-116 cells; [9]): inactive | Viability EC50 (p53RE-bla HCT-116 cells; [10]): inactive | Viability efficacy (p53RE-bla HCT-116 cells; [10]): inactive | Viability EC50 (p53RE-bla HCT-116 cells; [11]): inactive | Viability efficacy (p53RE-bla HCT-116 cells; [11]): inactive | Viability EC50 (p53RE-bla HCT-116 cells; [12]): inactive | Viability efficacy (p53RE-bla HCT-116 cells; [12]): inactive | p53 activation EC50 ([1]; cherry pick confirmation): inactive | p53 activation efficacy ([1]; cherry pick confirmation): inactive | p53 activation EC50 ([1]; primary screening): inactive | p53 activation efficacy ([1]; primary screening): inactive | efficacy [2]: 62.97 ± 5.75% | efficacy [3]: 30.74 ± 7.4% | p53 activation efficacy [4, 8]: 40.6193 | p53 activation efficacy [4, 11]: 50.976 | Depletion after 16 h of incubation with cells [5]: 88.15 ± 1.39% | p53 activation EC50 [6, 7]: inactive | p53 activation efficacy [6, 7]: inactive | p53 activation efficacy [6, 10]: 33.0667

CC(C)OP(=S)(OC(C)C)SCCNS(=O)(=O)c1ccccc1
Viability EC50 (p53RE-bla HCT-116 cells; [7]): inactive | Viability efficacy (p53RE-bla HCT-116 cells; [7]): inactive | Viability EC50 (p53RE-bla HCT-116 cells; [8]): inactive | Viability efficacy (p53RE-bla HCT-116 cells; [8]): inactive | Viability EC50 (p53RE-bla HCT-116 cells; [9]): inactive | Viability efficacy (p53RE-bla HCT-116 cells; [9]): inactive | Viability EC50 (p53RE-bla HCT-116 cells; [10]): inactive | Viability efficacy (p53RE-bla HCT-116 cells; [10]): inactive | Viability EC50 (p53RE-bla HCT-116 cells; [11]): inactive | Viability efficacy (p53RE-bla HCT-116 cells; [11]): inactive | Viability EC50 (p53RE-bla HCT-116 cells; [12]): inactive | Viability efficacy (p53RE-bla HCT-116 cells; [12]): inactive | p53 activation EC50 ([1]; cherry pick confirmation): inactive | p53 activation efficacy ([1]; cherry pick confirmation): inactive | p53 activation EC50 ([1]; primary screening): inactive | p53 activation efficacy ([1]; primary screening): inactive | EC50 [2]: 9.68 µM | efficacy [2]: 58.17 ± 3.93% | efficacy [3]: 54.92 ± 34.55% | EC50 ([4]; Microsomes (RLM plus NADPH), follow-up study, mean ± SD of three experiments): 8.35 µM | p53 activation efficacy [4, 8]: 47.4617 | p53 activation efficacy [4, 11]: 42.8953 | EC50 ([4]; read-out: p53 activation EC50, cherry pick confirmation, with rat liver microsomes): 7.08 µM | EC50 ([4]; read-out: p53 activation EC50, primary screening, with rat liver microsomes): 4.95 µM | p53 activation EC50 [6, 7]: inactive | p53 activation efficacy [6, 7]: inactive | p53 activation efficacy [6, 10]: 38.1643 | EC50 ([6]; read-out: p53 activation EC50, primary screening, with human liver microsomes): 5.12 µM

CCOP(=S)(CC)Sc1ccccc1 (stereo not shown)
Viability EC50, HLM (p53RE-bla HCT-116 cells; Cherry pick confirmation): inactive | Viability Efficacy, HLM (p53RE-bla HCT-116 cells; Cherry pick confirmation): inactive | Viability EC50, RLM (p53RE-bla HCT-116 cells; Cherry pick confirmation): inactive | Viability Efficacy, RLM (p53RE-bla HCT-116 cells; Cherry pick confirmation): inactive | Viability EC50, HLM (p53RE-bla HCT-116 cells; Primary screening): inactive | Viability Efficacy, HLM (p53RE-bla HCT-116 cells; Primary screening): inactive | Viability EC50, RLM (p53RE-bla HCT-116 cells; Primary screening): inactive | Viability Efficacy, RLM (p53RE-bla HCT-116 cells; Primary screening): inactive | Viability EC50, No MS (p53RE-bla HCT-116 cells; [9]): inactive | Viability Efficacy, No MS (p53RE-bla HCT-116 cells; [9]): inactive | Viability EC50, No MS (p53RE-bla HCT-116 cells; [12]): inactive | Viability Efficacy, No MS (p53RE-bla HCT-116 cells; [12]): inactive | p53 activation EC50, No MS ([1]; cherry pick confirmation): inactive | p53 activation Efficacy, No MS ([1]; cherry pick confirmation): inactive | p53 activation EC50, No MS ([1]; primary screening): inactive | p53 activation Efficacy, No MS ([1]; primary screening): inactive | EC50 [2]: 18.9 µM | efficacy [2]: 95.35 ± 18.84% | EC50 ([3]; Heat-attenuated microsomes (RLM, 56 °C 30 min), mean ± SD of three experiments): Inactive | activity outcome in p53-bla assay ([4]; with RLM, confirmation study): induce p53 signaling | Depletion after 16 h of incubation with cells [5]: 97.33 ± 0.29% | p53 activation EC50, HLM [6, 13]: inactive | p53 activation Efficacy, HLM [6, 13]: inactive | EC50 ([6]; read-out: p53 activation EC50, HLM, Primary screening, human liver microsomes): 4.43 µM

— publication PMC9151520 (Archives of Toxicology, 2022)
